# Source: US5624932A (priority 1995, dated 1997)
# System: dorsal root ganglion (DRG) neurons
smiles,measurement,setting,value
COC1=CC=C2[C@H]3Cc4ccc(OC)c5c4[C@@]2(CCN3C)[C@H]1O5,"Alteration of action potential duration, opioid at low concentration",< nM,Prolongation
same,"Alteration of action potential duration, opioid at high concentration",μM,Shortening
